# The entries are a selection whose mix differs from that of the whole data set. Activity calls are given as the source filed them. Calls follow the shape of the dose curve; as a rule, active = well fitted inhibition curve with a large enough effect; inconclusive = small, poorly fitted or top-dose-only effect; inactive = flat fitted curve, though single readings scatter.
# Protein sequences, listed by entry. Tags and fused reporters are not part of them. Lines headed by an entry give the natural chain unless they say otherwise; changes in a name come on top.
# UniProt P18054: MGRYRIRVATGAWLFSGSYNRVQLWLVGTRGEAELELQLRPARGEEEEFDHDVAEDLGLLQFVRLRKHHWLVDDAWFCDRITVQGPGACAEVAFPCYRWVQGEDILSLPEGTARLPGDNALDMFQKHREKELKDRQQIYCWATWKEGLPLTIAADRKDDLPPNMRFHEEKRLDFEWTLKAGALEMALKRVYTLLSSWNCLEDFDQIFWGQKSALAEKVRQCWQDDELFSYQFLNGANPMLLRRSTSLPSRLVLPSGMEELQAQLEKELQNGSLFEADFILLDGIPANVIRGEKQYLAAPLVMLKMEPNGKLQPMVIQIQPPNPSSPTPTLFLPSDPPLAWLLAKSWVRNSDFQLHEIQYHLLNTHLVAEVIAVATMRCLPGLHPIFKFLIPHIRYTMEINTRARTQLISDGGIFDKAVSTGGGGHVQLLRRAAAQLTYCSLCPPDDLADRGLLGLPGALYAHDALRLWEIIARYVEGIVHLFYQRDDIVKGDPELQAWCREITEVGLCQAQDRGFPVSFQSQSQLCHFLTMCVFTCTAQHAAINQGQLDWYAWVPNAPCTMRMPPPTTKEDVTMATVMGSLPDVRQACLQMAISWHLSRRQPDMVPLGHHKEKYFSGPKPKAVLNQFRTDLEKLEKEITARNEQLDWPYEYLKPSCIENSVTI
# Target: Polyunsaturated fatty acid lipoxygenase ALOX12 (Homo sapiens) (UniProt P18054)
# Assay: qHTS Assay for Inhibitors of 12-hLO (12-human lipoxygenase); also: nearly all actives have a fitted effect of over 55% in size
# Details: purified 12-hLO, xylenol orange hydroperoxide absorbance
# Description: Assay Provider: Holman, T.R., University of California, Santa Cruz Screening Center PI: Austin, C.P. Screening Center: NIH Chemical Genomics Center [NCGC] Human lipoxygenase 12hLO is a member of the closely related lipoxygenase family of enzymes which catalyze the site-specific oxidation of arachidonic acid to various hormone precursor molecules and as such is a candidate for drug development in a variety of disease areas, such as cancer and inflammation. Inhibition of 12hLO activity was screened by utilizing arachidonic acid as a substrate. The extent of hydroperoxide product formation was measured by a secondary chromogenic reaction in which xylenol orange (XO, Sigma-Aldrich, cat. number 39,818-7) reacts with the ferric ions produced from the reaction between the hydroperoxide and ferrous ions. The Fe(III)-XO complex is characterized with red-shifted absorbance at 560 nm. A purified preparation of human 12hLO was supplied by Professor Ted Holman, University of California, Santa Cruz.
# Assay Protocol: Buffer: 25 mM Hepes pH 7.0, 0.01% Triton X-100. Reagents/Controls: Buffer in columns 3 and 4 as negative control (no enzyme). […] The absorbance at 405 and 573 nm were measured using ViewLux (Perkin-Elmer) High-throughput CCD imager and absorbance protocol settings. The 573-to-405 absorbance ratio was used to compute reaction progress.
# Potency is read from the fitted curve at half-maximal effect.
row,SMILES,Potency
1,COc1cccc(CNc2ccc(S(=O)(=O)Nc3nccs3)cc2)c1O,active: 15.8 µM
2,CC[n+]1c(/C=C/N(C)c2ccccc2)oc2ccc(Cl)cc21,active: 20 µM

# — PubChem BioAssay AID1452 (National Center for Advancing Translational Sciences (NCATS), 2008)
